Target: human phosphodiesterase-5 (PDE5) (Homo sapiens (Human), UniProt O76074)
Assay: PDE5 assay: formation of 5'GMP from cGMP, PDE5 enzyme isolated from human platelets

Compound: CCCOc1ccc(S(=O)(=O)N2CCC(CCO)CC2)cc1-c1nn2c(CCC)c(/C=N/O)c(C)c2c(=O)[nH]1 [Compound 1r, (E)-2-(5-((4-(2-hydroxyethyl)piperidin-1-yl)sulfonyl)-2-propoxyphenyl)-5-methyl-4-oxo-7-propyl-3,4-dihydropyrrolo[2,1-f][1,2,4]triazine-6-carbaldehyde oxime]
- % inhibition at 5.0E−09M: 74.0%

From patent US12351585B2, “2-phenyl-3,4-dihydropyrrolo[2,1-f] [1,2,4]triazinone derivatives as phosphodiesterase inhibitors and uses thereof” (TOPADUR PHARMA AG, priority 2015, dated 2025)
